Reference: patent publication US8951963B2, “Active cores of peptide triazole HIV-1 entry inhibitors” (priority 2009, dated 2015)

Experiments:
[1] = molecular target: T1, HIV-1YU-2 gp120 binding to mAb 17b (Human immunodeficiency virus type 1 group M subtype B, UniProt P35961); assay: biochemical
T1 construct: made in house; host or cells: Drosophila S2 cells (gp120)

[2] = molecular target: T2, HIV-1 YU-2 gp120 binding to b12 (Human immunodeficiency virus type 1 group M subtype B, UniProt P35961); assay: ELISA: inhibition of IgG b12 binding to immobilized YU-2 gp120
T2 construct: made in house; host or cells: Drosophila S2 cells (gp120)
From the text: (§1) FIGS. 13A-13C depict a series of chemical structures and a graph. […] FIG. 13C is a bar graph of inhibition by UM 17 of the binding of CD4i antibodies to immobilized YU-2 gp120. The (%) of binding of antibodies mAb F105 and IgG b12 to immobilized YU-2 gp120 is plotted against the concentration of the inhibitor peptide.

[3] = molecular target: T3, HIV-1 YU-2 gp120 binding to F105 (Human immunodeficiency virus type 1 group M subtype B, UniProt P35961); assay: ELISA: inhibition of mAb F105 binding to immobilized YU-2 gp120
T3 construct: made in house; host or cells: Drosophila S2 cells (gp120)
From the text: as §1

| SMILES | IC50 [1] [nM] | IC50 [2] [nM] | IC50 [3] [nM] |
| --- | --- | --- | --- |
| CC[C@H](C)[C@H](NC(=O)[C@@H](N)CCCNC(=N)N)C(=O)N[C@@H](CC(N)=O)C(=O)N[C@@H](CC(N)=O)C(=O)N[C@H](C(=O)N1C[C@@H](n2cc([C]34[CH]5[CH]6[CH]7[CH]3[Fe]6754389%10[CH]4[CH]3[CH]8[CH]9[CH]4%10)nn2)C[C@H]1C(=O)N[C@@H](Cc1c[nH]c2ccccc12)C(N)=O)[C@@H](C)CC (stereo partly drawn) [UM12] | 250 | – | – |
| CC[C@H](C)[C@H](NC(=O)[C@H](CC(N)=O)NC(=O)[C@@H](N)CC(N)=O)C(=O)N1C[C@@H](n2cc([C]34[CH]5[CH]6[CH]7[CH]3[Fe]6754389%10[CH]4[CH]3[CH]8[CH]9[CH]4%10)nn2)C[C@H]1C(=O)N[C@@H](Cc1c[nH]c2ccccc12)C(N)=O (stereo partly drawn) [UM17] | – | 4000 ± 170 | 600 ± 50 |
